Experiment: in vivo
Settings: mouse
From the text: Due to the high positive charge density and high water solubility, ionenes strongly interact with a wide variety of cell materials.

With `C[N+]1(C)CCCC1` the LD50 (ip) was 100 to 200 mg/kg and the LD50 (po) was greater than 1000 mg/kg.
